Ki data for one compound are collected here from US9873709B2 (priority 2013, dated 2018).

Chains of the proteins cited; added tags and fusions are not shown. Residues count along the entry.
UniProt P23458, 875-1153: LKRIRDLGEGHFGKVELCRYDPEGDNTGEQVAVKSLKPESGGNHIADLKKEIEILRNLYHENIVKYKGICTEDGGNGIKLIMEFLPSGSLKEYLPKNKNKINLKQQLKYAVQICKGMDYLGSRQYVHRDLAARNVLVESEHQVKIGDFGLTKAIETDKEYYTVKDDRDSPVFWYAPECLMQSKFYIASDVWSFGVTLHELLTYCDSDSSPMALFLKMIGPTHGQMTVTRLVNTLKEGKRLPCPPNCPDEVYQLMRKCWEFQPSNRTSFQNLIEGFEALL

For orientation: Ki means the dissociation constant of the complex between target and ligand, obtained from inhibition or displacement.

For this assay, the target named is isolated recombinant JAK1 kinase domain (Homo sapiens (Human), UniProt P23458). The settings on record: read-out: JAK1 Ki.

For the compound `CN1CCC(N(C)C(=O)c2ccc(Nc3nc4c(Oc5ccccc5)cccn4n3)cc2)CC1` [Example 1-248, N-Methyl-N-(1-methyl-piperidin-4-yl)-4-(8-phenoxy-[1,2,4]triazolo[1,5-a]pyridine-2-ylamino)-benzamide], the inhibitory constant (Ki) was 103 nM.
